Literature values, collected in US20040121305A1, “Generation of efficacy, toxicity and disease signatures and methods of use thereof” (priority 2002, published 2004).

Details: known toxins to be used for toxicity signature generation; organs known to be targeted

Question: With uranyl nitrate as the substance, how does the Target organ/organ system read?
Answer: The Target organ/organ system was “kidney”.
